Test results from patent US20060069516A1.

Chains of the proteins cited; added tags and fusions are not shown. Lines headed by an entry give the natural chain unless they say otherwise; changes in a name come on top. Chains listed by the source or under a name are the forms on record and can include a tag or linker.
myc-mCRFR2β (mouse), one chain, as listed by the source, form in doubt: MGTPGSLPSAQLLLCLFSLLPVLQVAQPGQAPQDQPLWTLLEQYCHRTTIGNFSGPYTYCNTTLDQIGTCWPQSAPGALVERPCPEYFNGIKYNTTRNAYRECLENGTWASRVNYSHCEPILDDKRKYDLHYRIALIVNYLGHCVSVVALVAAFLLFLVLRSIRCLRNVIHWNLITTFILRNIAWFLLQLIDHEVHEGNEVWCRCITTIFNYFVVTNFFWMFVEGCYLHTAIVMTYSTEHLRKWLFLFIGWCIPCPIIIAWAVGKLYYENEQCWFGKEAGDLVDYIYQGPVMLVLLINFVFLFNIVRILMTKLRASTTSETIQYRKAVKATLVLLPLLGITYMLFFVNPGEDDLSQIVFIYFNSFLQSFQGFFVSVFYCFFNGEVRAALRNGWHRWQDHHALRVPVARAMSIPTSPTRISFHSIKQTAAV

Tests used:
Assay in all cases: radioreceptor assay, competitive displacement of [125I-DTyr0]-astressin, membranes of transfected COSM6 cells
myc-mCRFR2β (mouse) = biological target: myc-mCRFR2β (mouse)
[1] = biological target: myc-mCRFR2β (R112E) (mouse)
[2] = biological target: myc-mCRFR2β (I67E) (mouse)
[3] = biological target: myc-mCRFR2β (R112W) (mouse)
[4] = biological target: myc-mCRFR2β (K92Q) (mouse)

- Ki (myc-mCRFR2β (mouse)): 1.1 nM
- Ki [1]: 7.2 nM
- Ki [2]: 128 nM
- Ki [3]: 1.9 nM
- Ki [4]: 3.1 nM
Substance: astressin (peptide)
